Patent publication US12552753B2, “Methods and compositions for targeting Tregs using CCR8 inhibitors” (Nanjing Immunophage Biomedical Co., Ltd., priority 2020, dated 2026)

Amino acid sequences for entries named in this document (tags omitted).
UniProt P51685, whole entry: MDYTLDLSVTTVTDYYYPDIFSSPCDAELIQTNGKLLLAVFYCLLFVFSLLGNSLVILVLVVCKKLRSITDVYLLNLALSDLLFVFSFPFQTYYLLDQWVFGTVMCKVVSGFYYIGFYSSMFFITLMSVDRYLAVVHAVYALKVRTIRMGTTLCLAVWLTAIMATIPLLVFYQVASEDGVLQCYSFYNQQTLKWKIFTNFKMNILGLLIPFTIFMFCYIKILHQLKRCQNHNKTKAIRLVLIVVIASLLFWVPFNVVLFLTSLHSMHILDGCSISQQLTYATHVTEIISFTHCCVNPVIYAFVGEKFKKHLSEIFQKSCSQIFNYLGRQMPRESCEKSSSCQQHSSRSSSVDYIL

Molecular target: CCR8 (Homo sapiens, UniProt P51685)
Assay: Tango assay (Tango-CCR8-Gal4-CHO-K1 cells, CCL1-stimulated, ONE-Glo luminescence)

Work on Cc1cc(S(=O)(=O)N[C@H](C)C2CCN(C)CC2)ccc1NC(=O)c1cccc(Cl)c1C [Compound 286, (R)-3-chloro-2-methyl-N-(2-methyl-4-(N-(1-(1-methylpiperidin-4-yl)ethyl)sulfamoyl)phenyl)benzamide] yielded an IC50 of 1 nM.
